AlphaSeq binding of Ab-14 light chain variants to a spike HR2 peptide

Values reported by Engelhart et al. 2022, doi:10.1038/s41597-022-01779-4 (FLAb copy).

All variants were tested on one target, the spike HR2 peptide PDVDLGDISGINAS (SARS-CoV-2).

Each scFv is VH, the linker GGGGSGGGGSGGGGS, VL, as in the parent Ab-14, and differs from it in the CDRs of the light chain only.
VH: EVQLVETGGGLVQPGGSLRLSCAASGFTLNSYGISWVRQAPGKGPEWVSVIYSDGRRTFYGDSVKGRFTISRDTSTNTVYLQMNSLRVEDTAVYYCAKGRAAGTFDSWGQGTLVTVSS
VL: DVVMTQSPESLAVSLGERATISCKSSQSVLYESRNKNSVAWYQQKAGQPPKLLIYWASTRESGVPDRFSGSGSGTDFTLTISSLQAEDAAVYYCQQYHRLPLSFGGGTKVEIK

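Phage display of a naive human antibody library on the peptide gave the parent. In library AAYL50, one, two or three CDR residues were substituted; doubles and triples were drawn at random. The assay is AlphaSeq: two haploid yeast populations carry antibody and antigen on their surface. The frequency of each diploid, read from paired DNA barcodes, reflects how well the two displayed proteins bind. A regression on co-assayed BCL2-family reference pairs converts the normalised counts of each replicate to an apparent Kd. The assay was run in three technical replicates.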

Changes read parent residue, position, new residue, counted from the first residue of the VL shown.
Values are log10 of the apparent Kd in nM; lower means stronger binding.
Where no diploid with the target was found in that replicate, the entry reads "nd": below detection, most likely a poor binder, though not proof of it.
Parent in this assay: reference entry 0.65, copy in this library 1.68.
Nonspecific signal, from three strains lacking the peptide, appeared in 18% of pairings of library AAYL50, centred on 4.19 (5% of these signals below 2.99); values are not corrected for it. Also given: how often the same scFv was detected with the empty control strains, with their mean in brackets.

changes,"log10 Kd, replicates",control signals
E61N+Q96E+L100S,4.07 nd nd,0/9
K36A+S58P+T59G,nd nd nd,0/9
E32K+N35E+W56H,nd nd nd,0/9
Q27N+E32F+R60Q,4.32 3.87 2.96,4/9 (3.31)
Y31T+K36Q+Q96R,nd nd nd,0/9
V29S+K36S+E61S,0.30 0.62 0.44,2/9 (4.70)
N35Q+E61F,1.21 1.27 1.09,1/9 (3.76)
V29K+K36D+P101Y,nd nd nd,1/9 (4.42)
Y31K+S38A+R99A,1.90 1.68 2.00,0/9
N37G+S58K,nd nd nd,2/9 (3.23)
R34H+K36V+A57T,0.72 1.11 0.88,2/9 (4.24)
Q27M+Y31W+P101Q,4.22 4.59 5.20,2/9 (3.94)
R34Q+K36N+W56C,1.33 1.36 1.38,0/9
V29C+R34S+S38A,0.55 0.80 0.50,1/9 (4.17)
S38L+T59F+L100C,nd nd nd,0/9
S26F+Q96V+H98L,4.34 4.62 6.17,5/9 (4.55)
R34N+N35V+S58M,nd 4.36 nd,1/9 (4.30)
Q27K+Q95S+R99N,3.76 2.61 3.07,0/9
Q27R+K36I+L102S,nd nd nd,0/9
K24M+Q27D+Q96V,nd 3.64 4.46,2/9 (4.31)
A57L+T59A+S103T,nd nd nd,0/9
S28H+S33I+N37Y,2.80 2.97 2.91,2/9 (4.35)
V29P+V39N+W56L,nd 3.15 nd,4/9 (4.65)
Q27W+R60Y+S62R,5.41 4.03 4.04,4/9 (4.21)
S58W+R60L,3.94 3.46 3.12,1/9 (4.03)
R34L+N35R+W56E,0.10 0.27 0.11,0/9
K24S+V29K+S38P,3.56 5.07 2.76,1/9 (3.37)
S25A+N35D+P101I,0.72 1.02 1.02,3/9 (4.41)
S28L+S33H+T59Y,nd nd nd,1/9 (3.17)
A40W+L102W,nd 5.06 nd,1/9 (3.36)
K36N+A57F+E61H,nd nd nd,0/9
S58H+P101E+L102F,nd nd nd,1/9 (3.74)
K24D+Q95V+Y97L,4.11 nd nd,2/9 (4.71)
K24D+S33W+H98Q,nd nd 3.50,2/9 (3.31)
V29P+Q95D+H98C,5.17 3.71 nd,2/9 (3.55)
S38W+R99S+L102H,nd nd nd,1/9 (5.32)
E32R+H98N+R99H,2.50 2.12 1.83,1/9 (3.81)

Top 6 of the variants detected in all replicates, tightest first:

changes,"log10 Kd, replicates",control signals
R34L+N35R+W56E,0.10 0.27 0.11,0/9
V29S+K36S+E61S,0.30 0.62 0.44,2/9 (4.70)
V29C+R34S+S38A,0.55 0.80 0.50,1/9 (4.17)
R34H+K36V+A57T,0.72 1.11 0.88,2/9 (4.24)
S25A+N35D+P101I,0.72 1.02 1.02,3/9 (4.41)
N35Q+E61F,1.21 1.27 1.09,1/9 (3.76)